# From patent publication US20160220637A1, “Pharmaceutical Compositions of Growth Hormone Secretagogue Receptor Ligands” (Ipsen Pharma S.A.S., priority 2010, published 2016)
# Sequences of proteins named here, by UniProt entry; tags and fusion partners are left off.
# UniProt Q92847, whole entry: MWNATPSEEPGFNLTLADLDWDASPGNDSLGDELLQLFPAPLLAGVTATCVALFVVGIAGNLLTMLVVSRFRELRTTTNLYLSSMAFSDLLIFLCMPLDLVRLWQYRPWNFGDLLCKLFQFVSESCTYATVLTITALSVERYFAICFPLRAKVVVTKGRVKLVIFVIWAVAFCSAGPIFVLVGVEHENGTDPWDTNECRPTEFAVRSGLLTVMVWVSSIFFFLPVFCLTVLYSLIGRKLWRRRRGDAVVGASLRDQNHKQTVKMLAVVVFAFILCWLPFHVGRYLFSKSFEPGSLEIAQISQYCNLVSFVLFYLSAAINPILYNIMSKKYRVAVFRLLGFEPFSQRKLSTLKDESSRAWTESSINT
# Legend:
# [1] = target: T1, human recombinant GHS receptor (Homo sapiens, UniProt Q92847); test: biochemical
# [2] = target: T1, human recombinant GHS receptor; details: read-out: hGHS Ki; 0.05 nM (125I)ghrelin, 60 min, 4° C., CHO-K1 membranes
SMILES,Ki [1],Ki [2]
"NC(=O)[C@H](Cc1ccccc1)NC(=O)[C@@H](Cc1c[nH]c2ccccc12)NC(=O)[C@@H](Cc1csc2ccccc12)NC(=O)C1CCNCC1 [Example 23, H-Inp-D-Bal-D-Trp-Phe-NH2]",2.3 nM,–
"NCCCC[C@H](NC(=O)[C@H](Cc1ccccc1)NC(=O)[C@@H](Cc1c[nH]c2ccccc12)NC(=O)[C@H](NC(=O)C1CCNCC1)C(c1ccccc1)c1ccccc1)C(N)=O [Example 10, H-Inp-D-Dip-D-Trp-Phe-Lys-NH2]",–,46.8 nM
"NCCCC[C@H](NC(=O)[C@H](Cc1ccccc1)NC(=O)[C@@H](Cc1c[nH]c2ccccc12)NC(=O)[C@@H](Cc1ccc(C(=O)c2ccccc2)cc1)NC(=O)C1CCNCC1)C(N)=O [Example 11, H-Inp-D-Bpa-D-Trp-Phe-Lys-NH2]",–,93.8 nM
"O=C(N[C@H](Cc1csc2ccccc12)C(=O)N[C@H](Cc1c[nH]c2ccccc12)c1nc(-c2ccccc2)c[nH]1)C1CCNCC1 [Example 68, H-Inp-D-Bal-D-Trp(Ψ)-Pim]",48.7 nM,–
"NC(=O)C1(NC(=O)[C@H](Cc2ccccc2)NC(=O)[C@@H](Cc2cccc3ccccc23)NC(=O)[C@@H](Cc2cccc3ccccc23)NC(=O)C2(N)CCNCC2)CCNCC1 [Example 48, H-Apc-D-1Nal-D-1Nal-Phe-Apc-NH2]",–,1.99 nM
"NC(=O)[C@H](Cc1c(F)c(F)c(F)c(F)c1F)NC(=O)[C@@H](Cc1c[nH]c2ccccc12)NC(=O)[C@@H](Cc1ccc2ccccc2c1)NC(=O)C1CCNCC1 [Example 18, H-Inp-D-2Nal-D-Trp-Pff-NH2]",–,36.3 nM
"NC(=O)C1(NC(=O)[C@H](Cc2ccccc2)NC(=O)[C@@H](Cc2ccc3ccccc3c2)NC(=O)[C@@H](Cc2cccc3ccccc23)NC(=O)C2(N)CCNCC2)CCNCC1 [Example 49, H-Apc-D-1Nal-D-2Nal-Phe-Apc-NH2]",1.71 nM,–
"NC(=O)C1(NC(=O)[C@H](Cc2cscn2)NC(=O)[C@@H](Cc2c[nH]c3ccccc23)NC(=O)[C@@H](Cc2cccc3ccccc23)NC(=O)C2(N)CCNCC2)CCNCC1 [Example 64, H-Apc-D-1Nal-D-Trp-Taz-Apc-NH2]",–,0.98 nM
"NC(=O)[C@H](Cc1cscn1)NC(=O)[C@@H](Cc1c[nH]c2ccccc12)NC(=O)[C@@H](Cc1csc2ccccc12)NC(=O)C1(N)CCNCC1 [Example 59, H-Apc-D-Bal-D-Trp-Taz-NH2]",–,1.62 nM
"NC(=O)C1(NC(=O)[C@H](Cc2ccccc2)NC(=O)[C@@H](Cc2cccc3ccccc23)NC(=O)[C@@H](Cc2csc3ccccc23)NC(=O)C2(N)CCNCC2)CCNCC1 [Example 51, H-Apc-D-Bal-D-1Nal-Phe-Apc-NH2]",–,3.48 nM
"NC(=O)C1(NC(=O)[C@H](Cc2ccccc2)NC(=O)[C@@H](Cc2c[nH]c3ccccc23)NC(=O)[C@@H](Cc2cccc3ccccc23)NC(=O)C2(N)CCNCC2)CCNCC1 [Example 46, H-Apc-D-1Nal-D-Trp-Phe-Apc-NH2]",0.46 nM,–
"NCCCC[C@H](NC(=O)[C@H](Cc1c(F)c(F)c(F)c(F)c1F)NC(=O)[C@@H](Cc1c[nH]c2ccccc12)NC(=O)[C@@H](Cc1ccc2ccccc2c1)NC(=O)C1CCNCC1)C(N)=O [Example 7, H-Inp-D-2Nal-D-Trp-Pff-Lys-NH2]",–,25.4 nM
"NC(=O)C1(NC(=O)[C@H](Cc2ccccc2)NC(=O)[C@@H](Cc2c[nH]c3ccccc23)NC(=O)[C@@H](Cc2ccc3ccccc3c2)NC(=O)C2CCNCC2)CCNCC1 [Example 29, H-Inp-D-2Nal-D-Trp-Phe-Apc-NH2]",0.64 nM,–
"NC(=O)C1(NC(=O)[C@H](Cc2ccccc2)NC(=O)[C@@H](Cc2ccc3ccccc3c2)NC(=O)[C@@H](Cc2csc3ccccc23)NC(=O)C2(N)CCNCC2)CCNCC1 [Example 52, H-Apc-D-Bal-D-2Nal-Phe-Apc-NH2]",–,1.49 nM
"NC(=O)C1(NC(=O)[C@H](Cc2cccs2)NC(=O)[C@@H](Cc2c[nH]c3ccccc23)NC(=O)[C@@H](Cc2cccc3ccccc23)NC(=O)C2CCNCC2)CCNCC1 [Example 40, H-Inp-D-1Nal-D-Trp-2Thi-Apc-NH2]",0.53 nM,–
"NC(=O)C1(NC(=O)[C@H](Cc2ccccc2)NC(=O)[C@@H](Cc2c[nH]c3ccccc23)NC(=O)[C@@H](Cc2cccc3ccccc23)NC(=O)C2CCNCC2)CCNCC1 [Example 30, H-Inp-D-1Nal-D-Trp-Phe-Apc-NH2]",0.36 nM,–

SMILES,Ki [1],Ki [2]
"NC(=O)C1(NC(=O)[C@H](Cc2ccccc2)NC(=O)[C@@H](Cc2c[nH]c3ccccc23)NC(=O)[C@@H](Cc2csc3ccccc23)NC(=O)C2CCNCC2)CCNCC1 [Example 1, H-Inp-D-Bal-D-Trp-Phe-Apc-NH2]",0.42 nM,–
"NCCCC[C@H](NC(=O)[C@H](Cc1ccccc1)NC(=O)[C@@H](Cc1c[nH]c2ccccc12)NC(=O)[C@@H](Cc1cccc2ccccc12)NC(=O)C1(N)CCNCC1)C(N)=O [Example 44, H-Apc-D-1Nal-D-Trp-Phe-Lys-NH2]",–,0.42 nM
"NCCCC[C@H](NC(=O)[C@H](Cc1cccs1)NC(=O)[C@@H](Cc1c[nH]c2ccccc12)NC(=O)[C@@H](Cc1cccc2ccccc12)NC(=O)C1(N)CCNCC1)C(N)=O [Example 32, H-Apc-D-1Nal-D-Trp-2Thi-Lys-NH2]",–,0.29 nM
"NC(=O)[C@H](Cc1cscn1)NC(=O)[C@@H](Cc1c[nH]c2ccccc12)NC(=O)[C@@H](Cc1ccc2ccccc2c1)NC(=O)C1(N)CCNCC1 [Example 61, H-Apc-D-2Nal-D-Trp-Taz-NH2]",–,2.11 nM
"NC(=O)[C@H](Cc1cccs1)NC(=O)[C@@H](Cc1c[nH]c2ccccc12)NC(=O)[C@@H](Cc1ccc2ccccc2c1)NC(=O)C1(N)CCNCC1 [Example 60, H-Apc-D-2Nal-D-Trp-2Thi-NH2]",0.95 nM,–
"NC(=O)[C@H](Cc1ccccc1)NC(=O)[C@@H](Cc1csc2ccccc12)NC(=O)[C@@H](Cc1ccc2ccccc2c1)NC(=O)C1CCNCC1 [Example 24, H-Inp-D-2Nal-D-Bal-Phe-NH2]",27.4 nM,–
"NCCCC[C@H](NC(=O)[C@H](Cc1ccccc1)NC(=O)[C@@H](Cc1ccc(C(=O)c2ccccc2)cc1)NC(=O)[C@@H](Cc1ccc2ccccc2c1)NC(=O)C1CCNCC1)C(N)=O [Example 12, H-Inp-D-2Nal-D-Bpa-Phe-Lys-NH2]",–,419 nM
"NC(=O)C1(NC(=O)[C@H](Cc2cscn2)NC(=O)[C@@H](Cc2c[nH]c3ccccc23)NC(=O)[C@@H](Cc2csc3ccccc23)NC(=O)C2(N)CCNCC2)CCNCC1 [Example 65, H-Apc-D-Bal-D-Trp-Taz-Apc-NH2]",1.13 nM,–
"NC(=O)[C@H](Cc1cccs1)NC(=O)[C@@H](Cc1c[nH]c2ccccc12)NC(=O)[C@@H](Cc1cccc2ccccc12)NC(=O)C1(N)CCNCC1 [Example 55, H-Apc-D-1Nal-D-Trp-2Thi-NH2]",0.73 nM,–
"NC(=O)[C@H](Cc1ccccc1)NC(=O)[C@H](NC(=O)[C@@H](Cc1ccc2ccccc2c1)NC(=O)C1CCNCC1)C(c1ccccc1)c1ccccc1 [Example 22, H-Inp-D-2Nal-D-Dip-Phe-NH2]",–,105 nM
"NC(=O)[C@H](Cc1ccccc1)NC(=O)[C@@H](Cc1c[nH]c2ccccc12)NC(=O)[C@H](NC(=O)C1CCNCC1)C(c1ccccc1)c1ccccc1 [Example 21, H-Inp-D-Dip-D-Trp-Phe-NH2]",–,105 nM
"NCCCC[C@H](NC(=O)[C@H](Cc1ccccc1)NC(=O)[C@@H](Cc1c[nH]c2ccccc12)NC(=O)[C@@H](Cc1ccc2ccccc2c1)NC(=O)C1(N)CCNCC1)C(N)=O [Example 31, H-Apc-D-2Nal-D-Trp-Phe-Lys-NH2]",0.42 nM,–
"NCCCC[C@H](NC(=O)[C@H](Cc1ccccc1)NC(=O)[C@@H](Cc1c[nH]c2ccccc12)NC(=O)[C@@H](Cc1ccc(-c2ccccc2)cc1)NC(=O)C1CCNCC1)C(N)=O [Example 5, H-Inp-D-Bip-D-Trp-Phe-Lys-NH2]",–,1.35 nM
"NC(=O)[C@H](Cc1cccs1)NC(=O)[C@@H](Cc1c[nH]c2ccccc12)NC(=O)[C@@H](Cc1csc2ccccc12)NC(=O)C1(N)CCNCC1 [Example 58, H-Apc-D-Bal-D-Trp-2Thi-NH2]",0.98 nM,–
"NCCCC[C@H](NC(=O)[C@H](Cc1ccccc1)NC(=O)[C@@H](Cc1c[nH]c2ccccc12)NC(=O)[C@@H](Cc1csc2ccccc12)NC(=O)C1(N)CCNCC1)C(N)=O [Example 45, H-Apc-D-Bal-D-Trp-Phe-Lys-NH2]",0.32 nM,–

# Read-outs that look alike come from different tables or passages of the source.
